The results in this text go back to patent US20180344768A1, “NK CELL-BASED THERAPY” (Onkimmune Limited, priority 2016, published 2018).

The series deals with MM cell lines RPMI8226 and MM1.S. Conditions: low dose, associated with DR5 upregulation, data not shown.

`CC(C)C[C@H](NC(=O)[C@H](Cc1ccccc1)NC(=O)c1cnccn1)B(O)O` [Bortezomib]: the induction of apoptosis result is “minor induction of apoptosis”.
